The entries are a selection whose mix differs from that of the whole data set.
Test system: Pseudomonas aeruginosa PA14 wild type
Test: respiration area under curve with compound as sole nitrogen source, 24 h (OmniLog AUC (arbitrary units)); higher = more respiration / better utilisation as nitrogen source, active = 2000 or more
Conditions: plate: PM8
Protocol: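 Biolog Phenotype MicroArray plates PM6-PM8: each di/tripeptide is the sole nitrogen source (IF-0 medium with succinate/ferric citrate and dye mix A). Tetrazolium reduction was read in the OmniLog every 15 min for 24 h at 37°C and summarised as area under the respiration curve (arbitrary units). The paper counts values below 2000 as no respiration and above 8000 as solid respiration. Replicate datasets are averaged. Lys/His/Cys peptides are excluded because the paper states they reduce the dye without growth.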

Row | Compound | respiration area under curve
1 | CC(C)C[C@H](N)C(=O)N[C@@H](Cc1ccc(O)cc1)C(=O)O | active: 8090

— the supplement of paper PMC4206461
